This experiment deals with Liver carboxylesterase (Sus scrofa, UniProt Q29550).

The chains behind the UniProt entries cited, without tags or fusion partners.
UniProt Q29550, whole entry, looked up: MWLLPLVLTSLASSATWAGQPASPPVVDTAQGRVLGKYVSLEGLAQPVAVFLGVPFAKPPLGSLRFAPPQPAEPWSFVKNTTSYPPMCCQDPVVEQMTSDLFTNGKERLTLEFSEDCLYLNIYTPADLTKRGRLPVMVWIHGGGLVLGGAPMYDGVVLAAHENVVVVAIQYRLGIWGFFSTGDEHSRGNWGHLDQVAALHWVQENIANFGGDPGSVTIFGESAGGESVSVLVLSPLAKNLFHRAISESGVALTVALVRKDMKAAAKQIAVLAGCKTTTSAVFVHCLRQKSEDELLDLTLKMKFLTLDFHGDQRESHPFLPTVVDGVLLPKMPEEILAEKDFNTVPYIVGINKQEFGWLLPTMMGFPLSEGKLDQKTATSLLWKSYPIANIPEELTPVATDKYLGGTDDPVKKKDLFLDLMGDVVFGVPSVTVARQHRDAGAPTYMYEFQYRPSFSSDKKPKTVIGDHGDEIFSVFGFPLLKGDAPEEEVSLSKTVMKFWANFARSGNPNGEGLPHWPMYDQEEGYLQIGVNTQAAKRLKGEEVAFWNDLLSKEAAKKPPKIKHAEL

The term IC50 denotes the point on the concentration scale where inhibition reaches its midpoint. In the case of `CC[C@H](C)[C@@H](Cn1cc(COP(C)(=O)OC(C(F)(F)F)C(F)(F)F)nn1)NC(=O)CN(Cc1ccccc1)C(=O)C(F)(F)F` (stereo not given in full), it took 63.9 µM to reach half-maximal inhibition (IC50).
With `C#CCOP(C)(=O)OC(C(=O)OC)C(F)(F)F` (stereo not given) the figure was 6.06 µM.
In turn, `CC(C)[C@@H](Cn1cc(COP(C)(=O)OC(C(F)(F)F)C(F)(F)F)nn1)NC(=O)CN(Cc1ccccc1)C(=O)C(F)(F)F` (stereo not given in full) returned a half-inhibitory concentration (IC50) of 85.8 µM.
For `C#CCOP(C)(=O)OC(C(F)(F)F)C(F)(F)F` (stereo not given) the value was 23.1 µM.
`COC(=O)C(OP(C)(=O)OCc1cn(C[C@@H](NC(=O)CN(Cc2ccccc2)C(=O)[C@H](C)NC(=O)OC(C)(C)C)C(C)C)nn1)C(F)(F)F` (stereo not given in full): the IC50 was found to be 79.3 µM.

(Values after ChEMBL document CHEMBL1921786.)
